CycPeptMPDB entries from one study

Values of Townsend et al. 2020, doi:10.26434/chemrxiv.13335941.v1, as listed in CycPeptMPDB.

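Lipid, pH, incubation time, direction and concentration are not recorded in the data file. Other peptides of the study may be missing here. Peptides that the database sets to -10, its floor, are left out.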

PAMPA measures passive passage through an artificial lipid membrane. Permeability is in 10^-6 cm/s, converted from the database's log10 values; higher is more permeable.

For CC(C)C[C@@H]1NC(=O)[C@H]2CCCN2C(=O)[C@H](CC(C)C)N(C)C(=O)[C@@H](CC(C)C)NC(=O)[C@H](C)NC(=O)[C@H](Cc2ccccc2)NC1=O the data give PAMPA 0.54 × 10^-6 cm/s. CCCN1CC(=O)N(C)[C@@H](CC(C)C)C(=O)N[C@@H](Cc2ccccc2)CC(=O)N2CCC[C@H]2C(=O)N(C)[C@H](CC(C)C)C(=O)N[C@@H](Cc2ccccc2)C(=O)N2CCC[C@H]2C1=O is reported with PAMPA 2.1 × 10^-6 cm/s. CCCN1CC(=O)N[C@H](CC(C)C)C(=O)N(C)[C@@H](CC(C)C)C(=O)N2CCC[C@H]2C(=O)N(C)[C@H](CC(C)C)C(=O)N[C@@H](Cc2ccccc2)C(=O)N2CCC[C@@H]2C1=O is reported with PAMPA 6.3 × 10^-6 cm/s. CC(C)C[C@@H]1NC(=O)[C@H](C)NC(=O)[C@@H]2CCCN2C(=O)[C@H](Cc2ccccc2)NC(=O)[C@H](CC(C)C)N(C)C(=O)[C@H]2CCCN2C(=O)[C@H](CC(C)C)N(C)C1=O has PAMPA 0.59 × 10^-6 cm/s. For CC(C)C[C@@H]1NC(=O)[C@@H]2CCCN2C(=O)C[C@H](Cc2ccccc2)NC(=O)[C@@H](CC(C)C)NC(=O)[C@H](C)N(C)C(=O)[C@H](Cc2ccccc2)NC1=O the data give PAMPA 1.6 × 10^-6 cm/s.

CCCN1CC(=O)N(C)[C@H](CC(C)C)C(=O)N(C)[C@H](CC(C)C)C(=O)N2CCC[C@H]2C(=O)N(Cc2ccccc2)CC(=O)N[C@@H](Cc2ccccc2)C(=O)N2CCC[C@@H]2C1=O is reported with PAMPA 4.7 × 10^-6 cm/s. CC(C)C[C@@H]1C(=O)N(C)[C@H](CC(C)C)C(=O)N2CCC[C@@H]2C(=O)N(Cc2ccccc2)CC(=O)N[C@@H](Cc2ccccc2)C(=O)N2CCC[C@@H]2C(=O)N[C@@H](C)C(=O)N1C is reported with PAMPA 1.3 × 10^-6 cm/s. For CC(C)C[C@@H]1NC(=O)[C@H](C)N(C)C(=O)[C@H]2CCCN2C(=O)[C@H](Cc2ccccc2)NC(=O)CN(Cc2ccccc2)C(=O)[C@H]2CCCN2C(=O)[C@H](CC(C)C)N(C)C1=O the data give PAMPA 9.8 × 10^-6 cm/s. CC(C)C[C@H]1C(=O)N(C)[C@@H](CC(C)C)C(=O)N2CCC[C@H]2C(=O)N(Cc2ccccc2)CC(=O)N[C@@H](Cc2ccccc2)C(=O)N[C@H](C)C(=O)N1C has PAMPA 4.3 × 10^-6 cm/s. CC(C)C[C@@H]1C(=O)N[C@@H](Cc2ccccc2)C(=O)N2CCC[C@@H]2C(=O)N(C)[C@H](C)C(=O)N(C)[C@@H](CC(C)C)C(=O)N(C)[C@@H](CC(C)C)C(=O)N2CCC[C@H]2C(=O)N1C has PAMPA 6.8 × 10^-6 cm/s.

The entry for CC(C)C[C@@H]1NC(=O)[C@@H](C)N(C)C(=O)[C@H]2CCCN2C(=O)[C@H](Cc2ccccc2)NC(=O)CN(Cc2ccccc2)C(=O)[C@@H]2CCCN2C(=O)[C@@H](CC(C)C)N(C)C1=O lists PAMPA 4.3 × 10^-6 cm/s. For CC(C)C[C@@H]1NC(=O)[C@@H](CC(C)C)NC(=O)[C@@H](C)NC(=O)[C@H]2CCCN2C(=O)[C@H](Cc2ccccc2)NC(=O)[C@@H](CC(C)C)NC(=O)[C@@H]2CCCN2C1=O the data give PAMPA 0.25 × 10^-6 cm/s. For CCCN1CC(=O)N(C)[C@H](CC(C)C)C(=O)N(C)[C@@H](CC(C)C)C(=O)N2CCC[C@H]2C(=O)N(C)[C@H](CC(C)C)C(=O)N[C@@H](Cc2ccccc2)C(=O)N2CCC[C@H]2C1=O the data give PAMPA 3.9 × 10^-6 cm/s. For CCCN1CC(=O)N[C@@H](CC(C)C)C(=O)N[C@@H](CC(C)C)C(=O)N2CCC[C@H]2C(=O)N(C)[C@H](CC(C)C)C(=O)N[C@@H](Cc2ccccc2)C1=O the data give PAMPA 10 × 10^-6 cm/s. CC(C)C[C@@H]1NC(=O)[C@@H](C)N(C)C(=O)[C@H]2CCCN2C(=O)[C@H](Cc2ccccc2)NC(=O)[C@H](CC(C)C)N(C)C(=O)[C@H]2CCCN2C(=O)[C@@H](CC(C)C)NC1=O is reported with PAMPA 2.6 × 10^-6 cm/s.

CCCN1CC(=O)N(C)[C@H](CC(C)C)C(=O)N[C@@H](Cc2ccccc2)CC(=O)N2CCC[C@H]2C(=O)N[C@@H](CC(C)C)C(=O)N[C@@H](Cc2ccccc2)C(=O)N2CCC[C@H]2C1=O is reported with PAMPA 1.9 × 10^-6 cm/s. Listed for CCCN1CC(=O)N(C)[C@H](CC(C)C)C(=O)N(C)[C@@H](CC(C)C)C(=O)N2CCC[C@@H]2C(=O)N[C@H](CC(C)C)C(=O)N[C@@H](Cc2ccccc2)C(=O)N2CCC[C@H]2C1=O: PAMPA 5.1 × 10^-6 cm/s.

Excerpt, the opening 2 entries:

{"smiles": "CC(C)C[C@@H]1NC(=O)[C@H]2CCCN2C(=O)[C@H](CC(C)C)N(C)C(=O)[C@@H](CC(C)C)NC(=O)[C@H](C)NC(=O)[C@H](Cc2ccccc2)NC1=O", "PAMPA (10^-6 cm/s)": "0.54"}
{"smiles": "CCCN1CC(=O)N(C)[C@@H](CC(C)C)C(=O)N[C@@H](Cc2ccccc2)CC(=O)N2CCC[C@H]2C(=O)N(C)[C@H](CC(C)C)C(=O)N[C@@H](Cc2ccccc2)C(=O)N2CCC[C@H]2C1=O", "PAMPA (10^-6 cm/s)": "2.1"}